The subject of the data set is Aβ40 of cerebral cortex fractions (soluble Aβ40 and insoluble Aβ40).

In the case of “recombinant GCP-II protein purified from insect cells (Sf21)”, the “reduction of insoluble Aβ40 after co-culture with rGCP-II” value is reported as “rGCP-II reduced insoluble Aβ40 by 35%”.

Values taken from patent publication US20080305099.
